Measured values as given in EPA's ToxRefDB 2.

Key:
[1] = test system: rat; conditions: Prenatal developmental toxicity study; Oral; Gavage/Intubation; dose end: 12 day; group: maternal; systemic / in life observation / body weight / body weight + systemic / in life observation / body weight / body weight gain + systemic / in…
[2] = test system: rabbit; conditions: Prenatal developmental toxicity study, Oral, Gavage/Intubation, dose end: 13 day
[3] = test system: rat; conditions: Prenatal developmental toxicity study, long evans, Oral, Feed
[4] = test system: rabbit; conditions: Prenatal developmental toxicity study; other; Oral; Feed; group: developmental; developmental / offspring survival late / [other] / [other] + systemic / in life observation / body weight / offspring (pup) weight
[5] = test system: hamster; conditions: Prenatal developmental toxicity study, Syrian, Oral, Feed
[6] = test system: rat; conditions: Prenatal developmental toxicity study, sprague dawley, Oral, Gavage/Intubation, dose end: 20 PND
[7] = group: developmental, developmental / developmental malformation / general / [other]
[8] = group: maternal, systemic / hematology / lymphocyte / lymphocyte
[9] = group: developmental, systemic / in life observation / body weight / offspring (pup) weight
[10] = group: maternal, reproductive / reproductive performance / reproductive performance other / NOS + reproductive / offspring survival early / dead fetuses / …
[11] = group: maternal, systemic / in life observation / food consumption / food consumption
[12] = group: developmental, developmental / offspring survival late / viability index / viability index + developmental / developmental landmark / vaginal opening / …
[13] = group: developmental, systemic / organ weight / liver / relative to body weight
[14] = group: maternal, systemic / organ weight / liver / relative to body weight + reproductive / reproductive performance / fertility / fertility + reproductive…

## Nc1cc2c3c(c1)C(c1ccccc1)=N[C@@H](NC(=O)c1cccnc1)C(=O)N3CC2 [CI-1044]
[1]
  LOAEL: > 50 mg/kg/day
[2]; [7]
  LEL: 10 mg/kg/day
  NEL: < 10 mg/kg/day
[2]; group: developmental, developmental / developmental malformation / general / [other] + systemic / in life observation / body weight / fetal weight
  LOAEL: > 150 mg/kg/day
[2]; [8]
  LEL: 10 mg/kg/day
  NEL: < 10 mg/kg/day
[2]; group: maternal, systemic / hematology / lymphocyte / lymphocyte + reproductive / reproductive performance / aborted / aborted + systemic / in life …
  LOAEL: > 150 mg/kg/day

## II [Iodine]
[3]; [9]
  LEL: 125 mg/kg/day
  LOAEL: > 125 mg/kg/day
  NEL: < 125 mg/kg/day
  NOAEL: ≥ 125 mg/kg/day
[3]; [10]
  LEL: 125 mg/kg/day
  LOAEL: > 125 mg/kg/day
  NEL: < 125 mg/kg/day
  NOAEL: ≥ 125 mg/kg/day
[4]
  LEL: 12.5 mg/kg/day
  LOAEL: > 50 mg/kg/day
  NEL: < 12.5 mg/kg/day
  NOAEL: ≥ 50 mg/kg/day
[5]; [9]
  LEL: 156 mg/kg/day
  LOAEL: > 156 mg/kg/day
  NEL: < 156 mg/kg/day
  NOAEL: ≥ 156 mg/kg/day
[5]; [11]
  LEL: 156 mg/kg/day
  LOAEL: > 156 mg/kg/day
  NEL: < 156 mg/kg/day
  NOAEL: ≥ 156 mg/kg/day

## ClC(Cl)=C(c1ccc(Cl)cc1)c1ccc(Cl)cc1 [p,p'-DDE]
[6]; [12]
  LOAEL: > 50 mg/kg/day
  NOAEL: ≥ 50 mg/kg/day
[6]; [13]
  LEL: 5 mg/kg/day
  NEL: < 5 mg/kg/day
[6]; group: maternal, systemic / organ weight / liver / relative to body weight
  NEL: 15 mg/kg/day
[6]; [14]
  LEL: 50 mg/kg/day
  LOAEL: > 50 mg/kg/day
  NOAEL: ≥ 50 mg/kg/day
